The source of these data is patent publication US20090143450A1, “METHOD FOR TREATING CENTRAL PAIN SYNDROM OR FOR INDUCING CENTRALLY GENERATED PAIN IN AN ANIMAL MODEL” (UNIVERSITY OF MARYLAND, BALTIMORE, priority 2005, published 2009).

For this assay, the system named is thalamic relay cells (thalamic bursting). As to the kind of experiment: Extracellular recordings of evoked neuronal activity in ex vivo thalamic brain slices. The settings on record: 700 μM, FIG. 2. The format is cell-based, rat. Here is the method:
Spinothalamic tract transection. The spinothalamic tract is transected bilaterally at the level of the thoracic/lumbar border, thereby severing the ascending pathways conveying somatosensory, thermal and nociceptive information to the cortex via the thalamus. Male, adult Sprague-Dawley rats (ca. 200 gm) are anesthetized with pentobarbital and a T8 laminectomy is performed. The dura is opened with the tip of a 21 g. syringe needle to expose the spinal cord. The spinal cord is then lifted and rotated using a fine, sterile glass rod, and the ventral lateral pain pathways are severed electrolytically using a 1 MΩ sharpened tungsten needle and a 45 V pulse for 1 min. The lesion is packed with a small piece of sterile gelfoam. The overlying muscles and skin are closed and sutured, and the animal is allowed to recover on a 37° C. heating pad. Sham-operated controls undergo a laminectomy without dural penetration or spinal injury. This spinal transection procedure is a useful model of central pain syndrome where increased pain sensitivity and allodynia were observed. At various times after the lesion, standard behavioral tests were completed to assay the threshold for a stimulus to be perceived as painful, and allodynia was performed on awake, behaving animals. These procedures have been fully approved by the University of Maryland School of Medicine Animal Care and Use Committee. […]

Consider `CCC1(C)CC(=O)NC1=O` (centres unmarked) [ethosuximide, 2-methyl-2-ethyl succinimide], for which, where the note is “bath perfusion, thalamic slices from animal with spinothalamic tract lesioned 19 days earlier”, the “bursting activity in the lesioned slices” value is “blocked the bursting activity”. The “normal evoked responses in control slices” value (slices from sham control animal) is “without affecting the normal evoked responses”.
